An excerpt weighted towards active compounds, which were near 2.1% of everything screened.
NR1D1 modulator: Rev-erb alpha (human) modulation. Rev-erbα–FITC-DNA binding, fluorescence polarization, 90 min. activity, % at 10 µM. 370,000 tested, 0.79% active. AID 1259318;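 active = activity above about 14%, limit read from the data; passing the limit was not always enough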;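 note: 0% = DMSO wells with 35 nM protein and 100% = DMSO wells with 750 nM protein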
SMARCA2 act: activators of SMARCA2 function; MG213 cells, MMTV-luciferase reporter, dexamethasone, overnight; activation, % at 9.1 µM; 370,000 tested, 1% active; in the data active = activation above about 7.8%;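 note: 0% = vehicle wells and 100% = reference activator wells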
INS-1E GSIS act: GLuc luminescence reporter in INS-1E cells, primary screen for activators of glucose-dependent secretion of insulin | INS-1E GLuc reporter insulin secretion, 2-3 h | activation, % at 16.6 µM | 370,000 tested, 0.61% active;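 active = lowest replicate activation of at least 40%, so every replicate reaches that level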;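 note: 0% = median of neutral control wells and 100% = median of IBMX positive control wells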
ERp5 block: blocks human ERp5 reductase activity on insulin | ERp5 insulin aggregation, absorbance 650 nm, 90 min | inhibition, % at 9.99 µM | 350,000 tested, 0.05% active | AID 651711;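 active = mean replicate inhibition above about 25%, with every replicate also reaching it, limit read from the data, passing the limit was not always enough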
PDI inh: PDI (human) enzyme inhibition. AID 588391. P07237. PDI insulin aggregation turbidity, A650, 90 min. inhibition, % at 10 µM. 350,000 tested, 0.052% active;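 active = mean inhibition across replicates of 30% or more, whatever share of single replicates reach that level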
Yeast UUG start: modulators of start codon recognition fidelity in yeast; S. cerevisiae UUG-firefly luciferase reporter, luminescence/redox ratio; AID 602363; 350,000 tested, 0.13% active; activity score, % at 18.7 µM;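 active = replicate mean at a twofold rise or more, about +100% in these data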;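 also: firefly luciferase made from a UUG start codon reports start codon fidelity; reporter light over untreated wells divided by growth signal over untreated wells; some hits fall short of that in this replicate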
SMARCA2 conf: SMARCA2 activation, confirmation screen. shares compounds with SMARCA2 act. MG213 cells, MMTV-luciferase with dexamethasone, luminescence, overnight; MG213 cells expressing E1A, Rb sequestered; DMSO wells 0%, reference activator 100%. activation, % at 9.1 µM. 3,500 tested, 30% active. AID 652260;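 active = activation above its plate's cutoff, the mean activation of tested wells plus 3 SD, cut at about 7.9% in these data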
VP16 Luc act: activates GAL4-VP16 luciferase, flagging SMARCA2 activator hits | HEK293 GAL4-VP16 pG5luc reporter, luciferase luminescence; scaled: DMSO wells 0%, SAHA wells 100% | AID 686939 | activation, % at 9.1 µM | 3,500 tested, 41% active | shares compounds with SMARCA2 act;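 active = activation above the solvent-only control well mean plus 3 SD, averaged across control plates, cut at about 5.2% in these data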
Starred values were filed as active, the others as inactive.

Results for COCCN1CCCc2nc(-c3ccc(Br)cc3)ccc21 ?
NR1D1 modulator: 2; SMARCA2 act: 11*; ERp5 block: 1; SMARCA2 conf: 7; VP16 Luc act: 7.8*

Results for Brc1ccc(CN2CCCc3nc(-c4ccccc4)ccc32)cc1 ?
NR1D1 modulator: -6; SMARCA2 act: -2; ERp5 block: 3

How did COc1ccc(-c2ccc3c(n2)CCCN3S(=O)(=O)c2ccc(OC)cc2)cc1 do in these assays?
NR1D1 modulator: 2; SMARCA2 act: -11; ERp5 block: 2

Results for COc1cccc(S(=O)(=O)Nc2ccc3c(c2)[C@H]2C[C@H](CC(=O)NCCc4ccccc4)O[C@@H](CO)[C@H]2O3)c1 ?
INS-1E GSIS act: -32; ERp5 block: -9

Results for C[C@H]1CCCCO[C@@H](CN(C)C(=O)Nc2ccc(F)cc2)[C@@H](C)CN([C@@H](C)CO)C(=O)c2cc(N(C)C)ccc2O1 ?
INS-1E GSIS act: -5

What do the screens show for `CNC[C@@H]1Oc2c(cccc2N(C)C)C(=O)N(C)C[C@H]1C`?
INS-1E GSIS act: -4

What do the screens show for `O=C(Nc1ccc(-c2nc3cc(Cl)ccc3o2)cc1)C1CCCO1` (stereo not drawn)?
NR1D1 modulator: -5; SMARCA2 act: 8.2*; PDI inh: -4; Yeast UUG start: -13; SMARCA2 conf: 4; VP16 Luc act: 10*

Results for O=C(Nc1ccc2oc(-c3ccccc3)nc2c1)C1CCCO1 (stereo not drawn) ?
NR1D1 modulator: 3; SMARCA2 act: 5; INS-1E GSIS act: 2; ERp5 block: 3; PDI inh: -17

Results for Cc1noc(C)c1NC(=O)Nc1ccc2c(c1)C(=O)N([C@@H](C)CO)C[C@H](C)[C@@H](CN(C)S(C)(=O)=O)OCCCC[C@H](C)O2 ?
INS-1E GSIS act: 13; ERp5 block: -1; Yeast UUG start: 27

What do the screens show for `CN(CCCNC(=O)CCCOc1cc(=O)n(C)c2ccccc12)Cc1ccccc1`?
NR1D1 modulator: 2; SMARCA2 act: 9.6*; INS-1E GSIS act: 5; ERp5 block: 1; PDI inh: 0; Yeast UUG start: -7; SMARCA2 conf: 2; VP16 Luc act: 3

How did O=C(N[C@H]1CC[C@H](CCNS(=O)(=O)Cc2ccccc2)O[C@H]1CO)c1cnccn1 do in these assays?
INS-1E GSIS act: -1

How did Cn1c(CCN2CCCCC2)nc2cc(NC(=O)NC3CCCCC3)ccc21 do in these assays?
NR1D1 modulator: -6; SMARCA2 act: 4; PDI inh: -6; Yeast UUG start: -10

3 entries drawn at random from the list so far:
How did COc1ccc(-c2ccc3c(n2)CCCN3S(=O)(=O)c2ccc(OC)cc2)cc1 do in these assays?
NR1D1 modulator: 2; SMARCA2 act: -11; ERp5 block: 2

Results for COCCN1CCCc2nc(-c3ccc(Br)cc3)ccc21 ?
NR1D1 modulator: 2; SMARCA2 act: 11*; ERp5 block: 1; SMARCA2 conf: 7; VP16 Luc act: 7.8*

How did O=C(N[C@H]1CC[C@H](CCNS(=O)(=O)Cc2ccccc2)O[C@H]1CO)c1cnccn1 do in these assays?
INS-1E GSIS act: -1

(more compounds)
How did CC1CCN(CCc2nc3cc(NC(=O)NC4CCCCC4)ccc3n2C)CC1 do in these assays?
NR1D1 modulator: -4; SMARCA2 act: 8.5*; INS-1E GSIS act: 8; PDI inh: 5; Yeast UUG start: -16; SMARCA2 conf: 4; VP16 Luc act: 1

How did Cc1noc(C)c1NC(=O)Nc1ccc2c(c1)CC(=O)N([C@@H](C)CO)C[C@@H](C)[C@H](CN(C)Cc1ccccc1)O2 do in these assays?
INS-1E GSIS act: 7; ERp5 block: -1; Yeast UUG start: 32

How did C[C@@H]1CCCCO[C@@H](CN(C)S(=O)(=O)c2ccc(F)cc2)[C@@H](C)CN([C@@H](C)CO)C(=O)c2cc(NC(=O)c3ccncc3)ccc2O1 do in these assays?
INS-1E GSIS act: -2; ERp5 block: 4; Yeast UUG start: -1

How did COc1ccc(-c2ccc3c(c2)[C@@H]2[C@@H](CCN2C(=O)C2CCCCC2)[C@H](CO)N3C)cc1 do in these assays?
INS-1E GSIS act: -10; ERp5 block: -3; Yeast UUG start: -2

What do the screens show for `COc1ccc(C2C(C(=O)N3CCN(c4ccccn4)CC3)CCC(=O)N2c2cc(OC)c(OC)c(OC)c2)cc1` (stereo not drawn)?
NR1D1 modulator: -3; SMARCA2 act: 8.0*; INS-1E GSIS act: 20; ERp5 block: 6; PDI inh: -5; Yeast UUG start: -6; SMARCA2 conf: 0; VP16 Luc act: 2

Results for COc1ccc(C2C(C(=O)N3CCN(c4ccccn4)CC3)CCC(=O)N2c2ccc(OC)cc2)cc1 (stereo not drawn) ?
NR1D1 modulator: 0; SMARCA2 act: -1; INS-1E GSIS act: 3; ERp5 block: 0; PDI inh: 6

Results for O=C(NNC(=O)c1ccc(Cl)cc1Cl)c1ccncc1 ?
NR1D1 modulator: 0; SMARCA2 act: -2; INS-1E GSIS act: -3; ERp5 block: 1; PDI inh: -5

Results for O=C(NNC(=O)c1ccccc1Cl)c1ccncc1 ?
NR1D1 modulator: 2; SMARCA2 act: 8.7*; INS-1E GSIS act: 7; ERp5 block: 1; PDI inh: 11; Yeast UUG start: -11; SMARCA2 conf: -4; VP16 Luc act: 0

How did Cc1cc(C)c2[nH]c(=O)c(CN(Cc3cccnc3)C(=S)NCCCN(C)C)cc2c1 do in these assays?
NR1D1 modulator: -10; SMARCA2 act: 11*; INS-1E GSIS act: -4; ERp5 block: 0; PDI inh: -5; SMARCA2 conf: -4; VP16 Luc act: 2

Results for CCN(CC)CCCNC(=S)N(Cc1cccnc1)Cc1cc2cc(C)cc(C)c2[nH]c1=O ?
NR1D1 modulator: 0; SMARCA2 act: -1; INS-1E GSIS act: -6; ERp5 block: -1; PDI inh: 3

How did C[C@@H]1CN([C@H](C)CO)S(=O)(=O)c2ccc(C3=CCCC3)cc2O[C@H]1CN(C)C(=O)c1ccccn1 do in these assays?
INS-1E GSIS act: 16; ERp5 block: -1; Yeast UUG start: -7

Results for CC(=O)c1cccc(NC(=S)NC(=O)c2ccccc2)c1 ?
NR1D1 modulator: 11; SMARCA2 act: -1; INS-1E GSIS act: 14; PDI inh: -2

What do the screens show for `CC(=O)c1cccc(NC(=S)NC(=O)C(C)C)c1`?
NR1D1 modulator: 1; SMARCA2 act: 8.7*; PDI inh: -7; Yeast UUG start: -23; SMARCA2 conf: -1; VP16 Luc act: 0

How did Clc1cccc(/C=N/Nc2nc(Cl)nc3ccccc23)c1 do in these assays?
NR1D1 modulator: 8; SMARCA2 act: 11*; PDI inh: 25; Yeast UUG start: 2; SMARCA2 conf: 11*; VP16 Luc act: 11*

What do the screens show for `Cc1cc(C)nc(N/N=C/c2cccc(Cl)c2)n1`?
NR1D1 modulator: 6; SMARCA2 act: 2; INS-1E GSIS act: 8; ERp5 block: -1; PDI inh: -2

Results for c1ccc(CSc2ccc(-c3ccco3)nn2)cc1 ?
NR1D1 modulator: -7; SMARCA2 act: 10*; INS-1E GSIS act: 9; PDI inh: 0; SMARCA2 conf: 8.3*; VP16 Luc act: 8.5*

Bioassay records from PubChem.
